Values of other authors, collected in US12037329B2, “SphK inhibitors and methods of making and using same” (Washington University, priority 2021, dated 2024).

The chains behind the UniProt entries cited, without tags or fusion partners. Where a name states a change or a piece, a line headed by the entry shows the natural chain unless it says otherwise.
UniProt Q9NYA1, whole entry: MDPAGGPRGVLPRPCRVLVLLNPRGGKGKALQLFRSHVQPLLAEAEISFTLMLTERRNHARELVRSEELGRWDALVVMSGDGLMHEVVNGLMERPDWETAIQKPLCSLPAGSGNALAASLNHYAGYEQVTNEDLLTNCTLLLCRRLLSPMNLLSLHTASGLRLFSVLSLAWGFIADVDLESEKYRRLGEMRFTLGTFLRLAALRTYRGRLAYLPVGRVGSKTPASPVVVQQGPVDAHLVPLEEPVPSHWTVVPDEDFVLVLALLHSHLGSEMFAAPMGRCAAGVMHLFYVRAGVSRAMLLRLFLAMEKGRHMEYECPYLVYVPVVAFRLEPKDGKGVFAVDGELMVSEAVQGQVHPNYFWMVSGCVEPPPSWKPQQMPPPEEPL
UniProt Q9NRA0: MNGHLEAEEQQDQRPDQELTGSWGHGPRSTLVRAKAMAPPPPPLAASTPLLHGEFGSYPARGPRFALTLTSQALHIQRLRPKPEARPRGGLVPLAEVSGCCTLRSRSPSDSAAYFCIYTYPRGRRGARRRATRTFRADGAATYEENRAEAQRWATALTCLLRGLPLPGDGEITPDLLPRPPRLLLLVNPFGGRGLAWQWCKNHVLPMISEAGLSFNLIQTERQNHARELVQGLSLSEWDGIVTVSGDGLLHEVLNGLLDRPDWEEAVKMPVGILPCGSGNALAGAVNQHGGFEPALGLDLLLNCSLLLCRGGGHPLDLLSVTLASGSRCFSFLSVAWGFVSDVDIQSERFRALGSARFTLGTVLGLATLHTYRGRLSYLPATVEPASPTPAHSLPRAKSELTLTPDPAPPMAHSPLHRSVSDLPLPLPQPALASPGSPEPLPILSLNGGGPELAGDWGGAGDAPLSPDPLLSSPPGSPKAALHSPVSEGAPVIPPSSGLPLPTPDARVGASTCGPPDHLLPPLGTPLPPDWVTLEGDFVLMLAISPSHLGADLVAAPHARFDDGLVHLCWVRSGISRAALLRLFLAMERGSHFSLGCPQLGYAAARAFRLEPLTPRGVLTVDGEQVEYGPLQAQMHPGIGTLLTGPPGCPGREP

What was measured:
SphK1 = SphK1 (Homo sapiens (Human), UniProt Q9NYA1); conditions: cited from earlier work
SphK2 = SphK2 (Homo sapiens (Human), UniProt Q9NRA0); conditions: cited from earlier work

Substance: ABC294640 [Compound 7]
- IC50 (SphK1): ≤ 100 µM
- IC50 (SphK2): 60 µM
